Assay [1] has as its target G protein-coupled receptor kinase 6 (Homo sapiens) (UniProt P43250). The note with it: at 1 µM.
Assay [2] has as its target Glycogen synthase kinase-3 alpha (Homo sapiens) (UniProt P49840). As to conditions: at 1 µM.
Assay [3] addresses Homeodomain-interacting protein kinase 1 (Homo sapiens) (UniProt Q86Z02). The note with it: at 1 µM.
Assay [4] addresses Protein kinase C zeta type (Homo sapiens) (UniProt Q05513). As to conditions: at 10 µM.
The target of assay [5] is T1, Serine/threonine-protein kinase D2 (Homo sapiens) (UniProt Q9BZL6).
T1 sequence (whole entry): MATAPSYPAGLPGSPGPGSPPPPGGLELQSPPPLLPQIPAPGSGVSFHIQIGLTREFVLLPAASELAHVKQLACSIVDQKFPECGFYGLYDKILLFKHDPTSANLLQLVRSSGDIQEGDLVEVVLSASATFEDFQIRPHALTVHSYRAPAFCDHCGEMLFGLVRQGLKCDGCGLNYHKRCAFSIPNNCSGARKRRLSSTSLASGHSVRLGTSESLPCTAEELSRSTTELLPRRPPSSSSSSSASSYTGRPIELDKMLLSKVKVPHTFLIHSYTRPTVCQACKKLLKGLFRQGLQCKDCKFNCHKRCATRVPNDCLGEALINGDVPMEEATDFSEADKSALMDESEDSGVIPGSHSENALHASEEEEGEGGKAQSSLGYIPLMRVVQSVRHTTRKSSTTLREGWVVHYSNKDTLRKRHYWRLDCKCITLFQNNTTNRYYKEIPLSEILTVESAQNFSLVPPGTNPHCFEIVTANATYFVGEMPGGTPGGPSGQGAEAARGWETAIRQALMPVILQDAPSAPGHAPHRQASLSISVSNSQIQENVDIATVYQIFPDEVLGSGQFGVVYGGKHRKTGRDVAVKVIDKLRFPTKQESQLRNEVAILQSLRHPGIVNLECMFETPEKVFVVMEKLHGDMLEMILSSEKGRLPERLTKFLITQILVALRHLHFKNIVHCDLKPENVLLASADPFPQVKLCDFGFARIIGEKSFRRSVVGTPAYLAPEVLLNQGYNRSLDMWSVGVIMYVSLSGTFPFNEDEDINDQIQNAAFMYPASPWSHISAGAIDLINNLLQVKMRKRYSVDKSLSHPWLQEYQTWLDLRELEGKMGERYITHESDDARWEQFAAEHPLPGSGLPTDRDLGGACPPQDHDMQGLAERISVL
The note with it: at 1 µM.

Amino acid sequences for entries named in this document (tags omitted). A change or cut given only in a name is not applied to a line headed by its entry.
UniProt P43250, whole entry, looked up: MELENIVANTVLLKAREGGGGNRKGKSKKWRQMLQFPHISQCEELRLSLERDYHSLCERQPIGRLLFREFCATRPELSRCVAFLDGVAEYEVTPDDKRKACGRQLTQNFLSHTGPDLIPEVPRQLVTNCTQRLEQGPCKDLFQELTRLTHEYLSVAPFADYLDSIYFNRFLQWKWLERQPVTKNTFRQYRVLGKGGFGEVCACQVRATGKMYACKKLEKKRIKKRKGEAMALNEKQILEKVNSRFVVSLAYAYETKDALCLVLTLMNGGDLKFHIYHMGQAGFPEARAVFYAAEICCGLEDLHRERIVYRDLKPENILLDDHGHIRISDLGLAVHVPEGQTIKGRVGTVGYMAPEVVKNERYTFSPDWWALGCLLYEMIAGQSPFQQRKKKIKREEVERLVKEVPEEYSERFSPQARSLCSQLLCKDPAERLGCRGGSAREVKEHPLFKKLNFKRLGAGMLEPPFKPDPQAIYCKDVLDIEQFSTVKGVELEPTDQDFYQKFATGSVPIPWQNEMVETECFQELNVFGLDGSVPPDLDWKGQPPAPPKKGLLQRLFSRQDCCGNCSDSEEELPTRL
UniProt P49840: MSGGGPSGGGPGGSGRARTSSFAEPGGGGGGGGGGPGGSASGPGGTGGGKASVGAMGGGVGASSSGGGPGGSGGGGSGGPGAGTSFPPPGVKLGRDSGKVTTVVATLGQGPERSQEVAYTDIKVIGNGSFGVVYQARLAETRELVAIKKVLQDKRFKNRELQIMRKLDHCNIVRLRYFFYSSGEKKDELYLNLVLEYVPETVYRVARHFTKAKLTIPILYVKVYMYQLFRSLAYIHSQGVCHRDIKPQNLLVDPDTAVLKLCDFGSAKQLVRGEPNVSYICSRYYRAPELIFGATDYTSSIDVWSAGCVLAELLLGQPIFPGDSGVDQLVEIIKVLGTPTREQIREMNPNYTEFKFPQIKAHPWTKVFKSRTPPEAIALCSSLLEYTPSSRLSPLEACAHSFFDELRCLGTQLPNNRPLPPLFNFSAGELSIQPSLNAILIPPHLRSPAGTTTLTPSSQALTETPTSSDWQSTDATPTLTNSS
UniProt Q86Z02: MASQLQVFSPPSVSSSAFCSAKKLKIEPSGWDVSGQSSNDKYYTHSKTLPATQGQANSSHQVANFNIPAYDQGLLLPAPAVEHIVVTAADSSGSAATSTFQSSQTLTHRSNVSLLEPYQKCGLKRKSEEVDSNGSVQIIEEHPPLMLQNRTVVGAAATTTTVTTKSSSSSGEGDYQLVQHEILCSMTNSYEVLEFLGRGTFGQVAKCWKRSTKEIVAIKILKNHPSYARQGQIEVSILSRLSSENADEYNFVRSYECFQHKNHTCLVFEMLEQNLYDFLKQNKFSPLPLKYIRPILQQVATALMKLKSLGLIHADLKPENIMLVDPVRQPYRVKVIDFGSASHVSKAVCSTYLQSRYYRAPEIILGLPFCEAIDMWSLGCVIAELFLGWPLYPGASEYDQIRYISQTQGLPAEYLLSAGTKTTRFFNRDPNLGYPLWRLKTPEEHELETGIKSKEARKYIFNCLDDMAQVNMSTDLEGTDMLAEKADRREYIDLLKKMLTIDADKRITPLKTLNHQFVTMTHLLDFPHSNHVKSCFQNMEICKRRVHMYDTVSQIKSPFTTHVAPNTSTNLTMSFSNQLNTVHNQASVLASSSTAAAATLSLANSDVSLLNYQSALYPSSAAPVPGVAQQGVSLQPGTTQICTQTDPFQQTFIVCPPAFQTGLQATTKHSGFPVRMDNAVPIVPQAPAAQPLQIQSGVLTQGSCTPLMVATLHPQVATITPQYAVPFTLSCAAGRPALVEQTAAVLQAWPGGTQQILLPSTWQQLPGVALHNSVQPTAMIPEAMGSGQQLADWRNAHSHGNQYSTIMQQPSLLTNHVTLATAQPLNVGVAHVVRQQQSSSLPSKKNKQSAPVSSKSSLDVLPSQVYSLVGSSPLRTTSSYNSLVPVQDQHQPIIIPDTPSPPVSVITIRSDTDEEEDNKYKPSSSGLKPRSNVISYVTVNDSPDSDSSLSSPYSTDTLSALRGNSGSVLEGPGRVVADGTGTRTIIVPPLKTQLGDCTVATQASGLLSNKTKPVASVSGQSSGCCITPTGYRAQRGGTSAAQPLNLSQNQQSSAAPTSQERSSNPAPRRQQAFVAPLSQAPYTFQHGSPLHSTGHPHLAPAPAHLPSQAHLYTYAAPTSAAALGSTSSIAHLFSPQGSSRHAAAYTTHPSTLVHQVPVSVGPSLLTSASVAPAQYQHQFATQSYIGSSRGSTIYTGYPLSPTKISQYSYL
UniProt Q05513: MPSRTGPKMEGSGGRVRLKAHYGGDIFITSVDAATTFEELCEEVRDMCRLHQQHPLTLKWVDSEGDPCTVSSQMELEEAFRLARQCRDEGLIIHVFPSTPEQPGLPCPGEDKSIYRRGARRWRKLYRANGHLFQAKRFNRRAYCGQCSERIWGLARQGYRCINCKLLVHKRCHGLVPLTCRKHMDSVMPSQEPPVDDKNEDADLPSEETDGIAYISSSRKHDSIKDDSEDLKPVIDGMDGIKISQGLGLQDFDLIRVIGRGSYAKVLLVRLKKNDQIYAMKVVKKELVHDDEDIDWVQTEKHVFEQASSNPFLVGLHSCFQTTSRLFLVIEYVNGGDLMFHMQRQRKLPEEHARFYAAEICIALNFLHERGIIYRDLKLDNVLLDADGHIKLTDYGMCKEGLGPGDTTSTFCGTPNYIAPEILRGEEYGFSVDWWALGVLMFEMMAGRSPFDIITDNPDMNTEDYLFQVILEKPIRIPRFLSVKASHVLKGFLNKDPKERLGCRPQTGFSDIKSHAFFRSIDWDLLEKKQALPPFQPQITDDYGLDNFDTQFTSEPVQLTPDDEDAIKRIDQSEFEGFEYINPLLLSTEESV
UniProt Q9H4B4: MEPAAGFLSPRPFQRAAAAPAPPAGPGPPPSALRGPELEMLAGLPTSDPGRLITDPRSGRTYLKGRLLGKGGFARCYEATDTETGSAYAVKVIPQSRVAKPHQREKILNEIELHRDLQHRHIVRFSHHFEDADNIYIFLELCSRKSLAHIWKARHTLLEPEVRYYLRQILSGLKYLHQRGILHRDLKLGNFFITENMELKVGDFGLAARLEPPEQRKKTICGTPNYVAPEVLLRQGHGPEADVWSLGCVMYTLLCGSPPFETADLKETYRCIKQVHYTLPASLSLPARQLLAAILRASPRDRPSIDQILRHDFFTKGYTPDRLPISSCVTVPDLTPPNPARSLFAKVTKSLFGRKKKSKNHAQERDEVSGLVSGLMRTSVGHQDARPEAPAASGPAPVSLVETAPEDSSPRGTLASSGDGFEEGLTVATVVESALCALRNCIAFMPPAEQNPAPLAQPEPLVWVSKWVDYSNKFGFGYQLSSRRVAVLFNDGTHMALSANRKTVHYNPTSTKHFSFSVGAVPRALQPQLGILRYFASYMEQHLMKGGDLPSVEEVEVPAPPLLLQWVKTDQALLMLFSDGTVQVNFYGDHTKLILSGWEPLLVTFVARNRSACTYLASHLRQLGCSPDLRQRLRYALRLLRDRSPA
UniProt P08922: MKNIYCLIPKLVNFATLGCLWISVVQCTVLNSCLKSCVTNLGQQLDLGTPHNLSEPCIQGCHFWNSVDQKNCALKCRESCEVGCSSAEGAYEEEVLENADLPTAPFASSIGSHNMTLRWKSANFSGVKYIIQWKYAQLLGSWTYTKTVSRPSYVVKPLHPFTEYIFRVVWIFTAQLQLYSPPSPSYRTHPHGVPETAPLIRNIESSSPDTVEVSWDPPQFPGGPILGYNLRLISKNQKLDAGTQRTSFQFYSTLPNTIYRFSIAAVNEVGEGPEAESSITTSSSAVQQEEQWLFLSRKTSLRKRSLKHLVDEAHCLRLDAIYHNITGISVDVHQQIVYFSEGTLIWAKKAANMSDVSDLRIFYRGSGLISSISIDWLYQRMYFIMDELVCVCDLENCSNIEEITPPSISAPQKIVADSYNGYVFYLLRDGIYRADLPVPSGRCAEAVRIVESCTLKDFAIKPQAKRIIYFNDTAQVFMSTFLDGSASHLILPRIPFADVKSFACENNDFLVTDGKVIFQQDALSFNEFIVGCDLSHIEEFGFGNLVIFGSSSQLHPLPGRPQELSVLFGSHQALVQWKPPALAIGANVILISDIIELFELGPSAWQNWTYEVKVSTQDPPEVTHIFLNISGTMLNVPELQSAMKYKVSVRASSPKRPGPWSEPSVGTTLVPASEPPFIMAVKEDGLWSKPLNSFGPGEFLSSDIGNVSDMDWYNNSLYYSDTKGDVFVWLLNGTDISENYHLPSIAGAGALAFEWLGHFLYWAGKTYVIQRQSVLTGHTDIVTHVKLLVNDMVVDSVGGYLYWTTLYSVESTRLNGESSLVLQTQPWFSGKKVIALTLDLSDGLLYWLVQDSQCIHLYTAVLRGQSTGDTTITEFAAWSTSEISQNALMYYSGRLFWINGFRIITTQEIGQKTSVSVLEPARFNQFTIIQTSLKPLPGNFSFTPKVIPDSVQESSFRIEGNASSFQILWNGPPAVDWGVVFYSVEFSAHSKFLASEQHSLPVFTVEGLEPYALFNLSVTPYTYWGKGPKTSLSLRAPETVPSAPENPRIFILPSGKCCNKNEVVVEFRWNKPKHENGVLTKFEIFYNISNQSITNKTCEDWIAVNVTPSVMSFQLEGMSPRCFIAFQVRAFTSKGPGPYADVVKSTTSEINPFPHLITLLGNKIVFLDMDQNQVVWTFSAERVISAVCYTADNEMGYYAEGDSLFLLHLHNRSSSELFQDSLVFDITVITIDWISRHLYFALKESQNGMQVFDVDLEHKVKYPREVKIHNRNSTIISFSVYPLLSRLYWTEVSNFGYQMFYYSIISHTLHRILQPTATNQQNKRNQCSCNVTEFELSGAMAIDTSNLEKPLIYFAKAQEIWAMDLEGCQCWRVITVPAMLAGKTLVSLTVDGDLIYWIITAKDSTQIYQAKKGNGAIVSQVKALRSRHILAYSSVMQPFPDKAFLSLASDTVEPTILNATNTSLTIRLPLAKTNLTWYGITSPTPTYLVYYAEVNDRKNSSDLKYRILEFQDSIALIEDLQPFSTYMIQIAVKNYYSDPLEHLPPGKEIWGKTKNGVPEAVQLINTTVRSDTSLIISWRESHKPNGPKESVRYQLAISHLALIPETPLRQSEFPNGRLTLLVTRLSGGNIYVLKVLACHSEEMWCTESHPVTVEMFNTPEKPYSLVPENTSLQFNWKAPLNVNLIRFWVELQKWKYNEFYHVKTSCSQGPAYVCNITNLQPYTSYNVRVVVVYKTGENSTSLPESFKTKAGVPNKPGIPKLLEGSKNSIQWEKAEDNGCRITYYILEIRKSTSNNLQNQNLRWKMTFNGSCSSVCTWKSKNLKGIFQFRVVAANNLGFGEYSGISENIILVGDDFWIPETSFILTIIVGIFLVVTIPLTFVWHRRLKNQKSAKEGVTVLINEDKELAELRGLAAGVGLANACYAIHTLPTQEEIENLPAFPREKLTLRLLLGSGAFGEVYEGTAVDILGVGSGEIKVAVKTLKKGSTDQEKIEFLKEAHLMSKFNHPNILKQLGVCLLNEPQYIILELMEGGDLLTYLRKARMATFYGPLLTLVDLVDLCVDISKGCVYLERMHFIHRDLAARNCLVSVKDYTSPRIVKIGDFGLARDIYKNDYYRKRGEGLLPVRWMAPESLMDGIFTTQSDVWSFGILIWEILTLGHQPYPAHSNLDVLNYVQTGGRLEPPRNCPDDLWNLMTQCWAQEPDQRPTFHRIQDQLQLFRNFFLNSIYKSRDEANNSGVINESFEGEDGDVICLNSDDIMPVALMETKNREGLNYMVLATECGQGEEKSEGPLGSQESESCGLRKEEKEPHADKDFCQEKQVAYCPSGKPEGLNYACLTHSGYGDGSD
UniProt Q15759, whole entry: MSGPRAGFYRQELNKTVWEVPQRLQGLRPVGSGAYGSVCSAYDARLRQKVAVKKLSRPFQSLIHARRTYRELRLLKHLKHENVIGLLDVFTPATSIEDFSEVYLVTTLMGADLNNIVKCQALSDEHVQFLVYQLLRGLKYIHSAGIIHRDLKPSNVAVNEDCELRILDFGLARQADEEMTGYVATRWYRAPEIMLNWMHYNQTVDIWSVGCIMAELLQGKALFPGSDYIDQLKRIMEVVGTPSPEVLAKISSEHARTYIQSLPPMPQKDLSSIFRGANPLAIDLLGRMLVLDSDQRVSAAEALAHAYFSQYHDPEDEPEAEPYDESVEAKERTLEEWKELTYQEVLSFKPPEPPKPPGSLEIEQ

The target in assay [6] is Serine/threonine-protein kinase pim-3 (Homo sapiens) (UniProt Q86V86). As to conditions: at 1 µM.
Assay [7] shares this target. As to conditions: at 10 µM.
In assay [8] the target is Serine/threonine-protein kinase PLK3 (Homo sapiens) (UniProt Q9H4B4). As to conditions: at 1 µM.
For assay [9] the target is unchanged. The note with it: at 10 µM.
Assay [10] addresses Proto-oncogene tyrosine-protein kinase ROS (Homo sapiens) (UniProt P08922). The note with it: at 1 µM.
Assay [11] has the same target. As to conditions: at 10 µM.
The target of assay [12] is Mitogen-activated protein kinase 11 (Homo sapiens) (UniProt Q15759). The note with it: at 1 µM.
Assay [13] concerns the target T2, Mitogen-activated protein kinase 12 (Homo sapiens) (UniProt P53778).
T2 sequence (whole entry): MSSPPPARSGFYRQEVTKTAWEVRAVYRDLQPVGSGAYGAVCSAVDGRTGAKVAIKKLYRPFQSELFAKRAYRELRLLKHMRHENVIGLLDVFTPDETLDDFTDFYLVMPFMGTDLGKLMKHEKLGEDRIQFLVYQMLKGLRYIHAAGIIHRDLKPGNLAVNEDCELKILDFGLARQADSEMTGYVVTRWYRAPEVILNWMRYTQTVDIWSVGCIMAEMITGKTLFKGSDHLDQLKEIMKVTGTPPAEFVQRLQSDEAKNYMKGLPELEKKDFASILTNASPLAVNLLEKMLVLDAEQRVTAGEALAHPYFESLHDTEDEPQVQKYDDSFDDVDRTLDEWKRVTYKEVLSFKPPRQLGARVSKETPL
As to conditions: at 1 µM.

Assay [14] addresses T2, Mitogen-activated protein kinase 12 (Homo sapiens). The note with it: at 10 µM.
The target of assay [15] is T3, Mitogen-activated protein kinase 13 (Homo sapiens) (UniProt O15264).
T3 sequence (whole entry): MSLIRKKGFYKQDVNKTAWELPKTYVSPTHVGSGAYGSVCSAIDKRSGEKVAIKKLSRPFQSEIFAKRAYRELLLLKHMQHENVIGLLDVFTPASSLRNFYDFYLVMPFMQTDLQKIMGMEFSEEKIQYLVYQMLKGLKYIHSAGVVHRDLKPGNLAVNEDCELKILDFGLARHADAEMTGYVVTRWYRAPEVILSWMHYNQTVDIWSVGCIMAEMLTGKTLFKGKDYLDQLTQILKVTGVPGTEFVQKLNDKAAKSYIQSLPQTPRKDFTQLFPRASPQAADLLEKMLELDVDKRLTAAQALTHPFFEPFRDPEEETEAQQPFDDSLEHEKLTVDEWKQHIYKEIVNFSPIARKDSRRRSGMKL
The note with it: at 10 µM.

For part of these data: This list holds what a sample rich in strong results left over. How the calls were made is not given here. This is a selection; strong and weak results do not stand in their true shares.

In the case of `O=C(c1cc2cc(O)ccc2[nH]1)c1cc2cc(O)ccc2[nH]1`, the residual activity turned out to be 88% in [1]; 85% in assay [2]; 99% in assay [3]; 96% in assay [4]; 103% in assay [5]; 84% in [6]. In addition, the residual activity in [7] was 91%; in [8] it was inactive: 85%; in assay [9] it was 89%; in [10], 93%; in [11], 85%; in [12], 98%. Moreover, the residual activity in assay [13] worked out at 94%; in assay [14] it was 82%; in [15], 84%.
